Test results reported in ChEMBL document CHEMBL4627335, “Lead discovery, chemical optimization, and biological evaluation studies of novel histone methyltransferase SET7 small-molecule inhibitors” (Bioorg Med Chem Lett, 2020).

Tested on: MCF7
Assay: Antiproliferative activity against human MCF7 cells expresses endogenous ER by Cell Titer-Glo based luminescence assay
Assay type: functional

For COC(=O)c1ccc(C2=CC(=O)C=CC2=O)o1, the Activity was “Dose-dependent effect”.
